From PubChem BioAssay (NCI)
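Five compound concentrations were applied to cells in 96-well plates for 48 hours; endpoints were derived by simple linear interpolation of the resulting dose-response curve. Abbreviation: GI50, concentration required for 50% inhibition of growth. The concentration for full growth arrest is given as TGI.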

Key:
Assay in all cases: NCI-60 cell line screen, 48 h
[1] = system: NCI/ADR-RES ovarian
[2] = system: U251 CNS
[3] = system: SNB-19 CNS
[4] = system: HCT-116 colon
[5] = system: TK-10 renal
[6] = system: RPMI-8226 leukemia
[7] = system: CCRF-CEM leukemia
[8] = system: SW-620 colon
[9] = system: HT29 colon
[10] = system: KM12 colon
[11] = system: COLO 205 colon
[12] = system: 786-0 renal
[13] = system: T-47D breast
[14] = system: OVCAR-3 ovarian
[15] = system: NCI-H460 lung
[16] = system: DU-145 prostate
[17] = system: SK-MEL-2 melanoma
[18] = system: UACC-62 melanoma
[19] = system: ACHN renal
[20] = system: NCI-H226 lung
[21] = system: SF-295 CNS
[22] = system: LOX IMVI melanoma
[23] = system: RXF 393 renal
[24] = system: NCI-H522 lung
[25] = system: SF-539 CNS
[26] = system: HL-60(TB) leukemia
[27] = system: HOP-62 NSCLC
[28] = system: IGROV1 ovarian
[29] = system: UO-31 renal
[30] = system: SK-MEL-28 melanoma
[31] = system: SR leukemia
[32] = system: HCT-15 colon
[33] = system: MOLT-4 leukemia
[34] = system: HOP-92 NSCLC
[35] = system: SN12C renal
[36] = system: OVCAR-4 ovarian
[37] = system: MALME-3M melanoma
[38] = system: M14 melanoma
[39] = system: NCI-H322M lung
[40] = system: NCI-H23 lung
[41] = system: CAKI-1 renal
[42] = system: K-562 leukemia
[43] = system: HS 578T breast
[44] = system: OVCAR-8 ovarian
[45] = system: MCF7 breast
[46] = system: OVCAR-5 ovarian
[47] = system: A498 renal
[48] = system: SK-OV-3 ovarian
[49] = system: SNB-75 CNS
[50] = system: MDA-MB-231 breast
[51] = system: UACC-257 melanoma
[52] = system: MDA-MB-435
[53] = system: EKVX NSCLC
[54] = system: PC-3 prostate
[55] = system: BT-549 breast
[56] = system: SF-268 CNS
[57] = system: A549 NSCLC
[58] = system: MDA-N
[59] = system: SK-MEL-5 melanoma
[60] = system: HCC-2998 colon

SMILES: N#C/C(=C\c1ccc(N(CCBr)CCBr)cc1)C(N)=O
- TGI [1]: 3.16 µM
- TGI [2]: 20 µM
- TGI [3]: > 100 µM
- TGI [4]: 7.93 µM
- TGI [5]: 4.08 µM
- TGI [6]: 26.2 µM
- TGI [7]: 54.1 µM
- TGI [8]: > 100 µM
- TGI [9]: > 100 µM
- TGI [10]: 7.12 µM
- TGI [11]: 5.23 µM
- TGI [12]: 11.9 µM
- TGI [13]: 27.8 µM
- TGI [14]: 7.12 µM
- TGI [15]: 24.1 µM
- TGI [16]: 49.4 µM
- TGI [17]: 70.5 µM
- TGI [18]: 0.256 µM
- TGI [19]: 2.59 µM
- TGI [20]: 3.19 µM
- TGI [21]: 6.27 µM
- TGI [22]: 4.06 µM
- TGI [23]: 23.1 µM
- TGI [24]: 22.7 µM
- TGI [25]: 15.6 µM
- TGI [26]: 5.52 µM
- TGI [27]: 10.5 µM
- TGI [28]: 42 µM
- TGI [29]: 32.5 µM
- TGI [30]: 17.3 µM
- TGI [31]: > 100 µM
- TGI [32]: 7.28 µM
- TGI [33]: 2.29 µM
- TGI [34]: > 100 µM
- TGI [35]: 7.03 µM
- TGI [36]: > 100 µM
- TGI [37]: 1.85 µM
- TGI [38]: 3.42 µM
- TGI [39]: 13.5 µM
- TGI [40]: 3.2 µM
- TGI [41]: 3.18 µM
- TGI [42]: 52.8 µM
- TGI [43]: 74.7 µM
- TGI [44]: 7.35 µM
- TGI [45]: 13.4 µM
- TGI [46]: 22.6 µM
- TGI [47]: 4.78 µM
- TGI [48]: 60.8 µM
- TGI [49]: 28.9 µM
- TGI [50]: 25 µM
- TGI [51]: 6.19 µM
- TGI [52]: 3.13 µM
- TGI [53]: 16.2 µM
- TGI [54]: 45.7 µM
- TGI [55]: 26.6 µM
- TGI [56]: 16.9 µM
- TGI [57]: 4.58 µM

SMILES: COP(=O)(OC)N(C)[Si](C)(C)C
- GI50 [1]: > 100 µM
- TGI [1]: > 100 µM
- GI50 [2]: > 100 µM
- TGI [2]: > 100 µM
- GI50 [3]: > 100 µM
- TGI [3]: > 100 µM
- GI50 [4]: > 100 µM
- TGI [4]: > 100 µM
- GI50 [5]: > 100 µM
- TGI [5]: > 100 µM
- GI50 [6]: > 100 µM
- TGI [6]: > 100 µM
- GI50 [7]: > 100 µM
- TGI [7]: > 100 µM
- GI50 [8]: > 100 µM
- TGI [8]: > 100 µM
- GI50 [9]: > 100 µM
- TGI [9]: > 100 µM
- GI50 [10]: > 100 µM
- TGI [10]: > 100 µM
- GI50 [58]: > 100 µM
- TGI [58]: > 100 µM
- GI50 [11]: > 100 µM
- TGI [11]: > 100 µM
- GI50 [12]: > 100 µM
- TGI [12]: > 100 µM
- GI50 [13]: > 100 µM
- TGI [13]: > 100 µM
- GI50 [14]: > 100 µM
- TGI [14]: > 100 µM
- GI50 [15]: > 100 µM
- TGI [15]: > 100 µM
- GI50 [16]: > 100 µM
- TGI [16]: > 100 µM
- GI50 [17]: > 100 µM
- TGI [17]: > 100 µM
- GI50 [18]: > 100 µM
- TGI [18]: > 100 µM
- GI50 [19]: > 100 µM
- TGI [19]: > 100 µM
- GI50 [20]: > 100 µM
- TGI [20]: > 100 µM
- GI50 [21]: > 100 µM
- TGI [21]: > 100 µM
- GI50 [22]: > 100 µM
- TGI [22]: > 100 µM
- GI50 [23]: > 100 µM
- TGI [23]: > 100 µM
- GI50 [24]: > 100 µM
- TGI [24]: > 100 µM
- GI50 [25]: > 100 µM
- TGI [25]: > 100 µM
- GI50 [26]: > 100 µM
- TGI [26]: > 100 µM
- GI50 [59]: > 100 µM
- TGI [59]: > 100 µM
- GI50 [27]: > 100 µM
- TGI [27]: > 100 µM
- GI50 [28]: > 100 µM
- TGI [28]: > 100 µM
- GI50 [29]: > 100 µM
- TGI [29]: > 100 µM
- GI50 [30]: > 100 µM
- TGI [30]: > 100 µM
- GI50 [31]: > 100 µM
- TGI [31]: > 100 µM
- GI50 [32]: > 100 µM
- TGI [32]: > 100 µM
- GI50 [33]: > 100 µM
- TGI [33]: > 100 µM
- GI50 [34]: > 100 µM
- TGI [34]: > 100 µM
- GI50 [35]: > 100 µM
- TGI [35]: > 100 µM
- GI50 [60]: > 100 µM
- TGI [60]: > 100 µM
- GI50 [36]: > 100 µM
- TGI [36]: > 100 µM
- GI50 [37]: > 100 µM
- TGI [37]: > 100 µM
- GI50 [38]: > 100 µM
- TGI [38]: > 100 µM
- GI50 [39]: > 100 µM
- TGI [39]: > 100 µM
- GI50 [40]: > 100 µM
- TGI [40]: > 100 µM
- GI50 [41]: > 100 µM
- TGI [41]: > 100 µM
- GI50 [42]: > 100 µM
- TGI [42]: > 100 µM
- GI50 [43]: > 100 µM
- TGI [43]: > 100 µM
- GI50 [44]: > 100 µM
- TGI [44]: > 100 µM
- GI50 [45]: > 100 µM
- TGI [45]: > 100 µM
- GI50 [46]: > 100 µM
- TGI [46]: > 100 µM
- GI50 [47]: > 100 µM
- TGI [47]: > 100 µM
- GI50 [48]: > 100 µM
- TGI [48]: > 100 µM
- GI50 [49]: 84.6 µM
- TGI [49]: > 100 µM
- GI50 [50]: > 100 µM
- TGI [50]: > 100 µM
- GI50 [51]: > 100 µM
- TGI [51]: > 100 µM
- GI50 [52]: > 100 µM
- TGI [52]: > 100 µM
- GI50 [53]: > 100 µM
- TGI [53]: > 100 µM
- GI50 [54]: > 100 µM
- TGI [54]: > 100 µM
- GI50 [55]: > 100 µM
- TGI [55]: > 100 µM
- GI50 [56]: > 100 µM
- TGI [56]: > 100 µM
- GI50 [57]: > 100 µM
- TGI [57]: > 100 µM
